Source: US20120283303A1, “USE OF N-AMINOIMIDAZOLE CYTOPROTECTIVE COMPOUNDS FOR TREATING CELL DEATH AND/OR GSK-3 MEDIATED DISEASES” (K.U.LEUVEN RESEARCH AND DEVELOPMENT, priority 2006, published 2012)

System: Peripheral blood mononuclear cells (PBMCs)
Experiment: PBMC survival (viable cell count, trypan blue exclusion)
Assay type: cell-based, human
Conditions: IL-2 10 U/ml; stimulated and non stimulated cells
Method: Peripheral blood mononuclear cells (PBMCs) from healthy donors were isolated by density centrifugation (Lymphoprep; Nycomed Pharma, AS Diagnostics, Oslo, Norway). For the “non-stimulated” conditions (NS) the cells were cultivated at a density of 1,750,000 cells per ml in RPMI-1640 supplemented with 2 mM L-glutamine, 15% FCS and 0.1% NaHCO3 for 3 days. The cells for the “stimulated” condition were treated with 2 μg/ml phytohemagglutin (PHA) (Sigma Chemical Co., Bornem, Belgium) and 5 U/ml of recombinant human IL-2 (Roche, Brussels, Belgium) for 3 days. At day 0 of the experiment, the NS and activated cells (PHA-stimulated blasts) were washed with PBS and were pelleted by centrifugation. The cells were re-suspended in the above described medium and equal number of cells were distributed over the 75 cm^2 culture flasks at a density of approximately 1×10^6 cells per ml and were supplemented with the required quantities of NAIM derivative in the presence or absence of IL-2. The number of viable cells was counted based on the trypan blue exclusion method. The evolution of the number of cells was followed over a period of approximately 2 weeks.

Substance: IL-2: recombinant human IL-2 (Roche, Brussels, Belgium)
- PBMC cell count, IL-2 only: increased
